Measured values published in patent US20160115200A1, “New Use for JNK Inhibitor Molecules for Treatment of Various Diseases” (XIGEN INFLAMMATION LTD., priority 2013, published 2016).

Assay: Stability (half-life) of JNK inhibitors in human serum, UPLC-MS
Settings: human serum (50% in FIG. 5; 10 and 50% in PBS 1x), 0.1 mM peptide
Method: The experiment was performed as described by Tugyi et al. (Proc Natl Acad Sci USA, 2005, 413-418). The remaining intact peptide was quantified by UPLC-MS.

GRKKRRQRRRPPRPKRPTTLNLFPQVPRSQD [SEQ ID NO: 196]
time until totally degraded into amino acids residues: ≤ 6 h
